# AlphaSeq binding of Ab-14 light chain variants to a spike HR2 peptide

Target: peptide PDVDLGDISGINAS, taken from heptad repeat 2 (HR2) of SARS-CoV-2 spike.

Parent scFv Ab-14: VH joined to VL by a 15-residue (Gly4Ser)3 linker. Changes lie in the light chain CDRs alone.
VH: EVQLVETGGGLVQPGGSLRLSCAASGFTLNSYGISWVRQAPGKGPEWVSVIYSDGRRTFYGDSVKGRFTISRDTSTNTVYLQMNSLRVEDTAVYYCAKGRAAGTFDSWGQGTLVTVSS
VL: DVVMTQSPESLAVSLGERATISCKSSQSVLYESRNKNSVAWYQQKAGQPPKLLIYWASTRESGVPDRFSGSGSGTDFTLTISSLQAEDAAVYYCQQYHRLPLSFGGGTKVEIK

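The library (AAYL50) carries one to three amino acid substitutions per variant, with no insertions or deletions. Affinity was read by AlphaSeq, a pooled yeast mating assay with surface-displayed partners. Pairs that bind mate more often; barcode pairs of the diploids are counted by sequencing. Read counts were normalised to the haploid input and turned into Kd by a linear fit to BCL2-family pairs of known affinity, for each replicate. The assay was run in three technical replicates.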

Variants are written as CDR1, CDR2 and CDR3 of the light chain (limits as in the source). Parent: KSSQSVLYESRNKNSVA, WASTRES, QQYHRLPLS. Numbers give log10(Kd / nM), so 0 is 1 nM and 3 is 1 µM. Smaller is tighter. A mean of the replicates is given; it leaves out those without a signal. Where no diploid with the target was found in that replicate, the entry reads "nd": below detection, most likely a poor binder, though not proof of it. In this assay the parent's reference entry averaged 0.65; its copy inside this library read 1.68.

CDR-L1	CDR-L2	CDR-L3	log10 Kd, replicates	mean, log10 nM	empty controls
KSSQSVLYENRNKNSVA	WASTRES	QGYHRLDLS	nd / nd / nd	nd	0 of 9
KSSQDVLYESRNKNSVA	WASTRES	QQWHRLPLS	1.37 / 1.48 / 1.57	1.47	5 of 9 (4.73)
KSSQSVLYPSRAKNSVA	WASTRES	QQYHRLDLS	1.67 / 1.61 / 2.03	1.77	1 of 9 (3.13)
KSSQSVWYESRNKNPVA	WASYRES	QQYHRLPLS	nd / nd / 2.51	2.51	0 of 9
SSSQSVLYESRFKNSVA	WASTREN	QQYHRLPLS	2.15 / nd / nd	2.15	0 of 9
KSSQSVLYESRNKNSVA	WASTRES	QQYHALCLS	nd / nd / nd	nd	0 of 9
KSSQAVLYENRNKNSVA	WASTRES	QQYHRLGLS	4.70 / nd / nd	4.70	0 of 9
KSSQSVLYESRPKNSVA	IASTRES	QQYHRLPLS	nd / 3.04 / 3.39	3.21	4 of 9 (3.45)
KSSQSVLYFSRNKNSVA	WANTRES	QQYHRNPLS	4.67 / 3.10 / nd	3.88	0 of 9
KSSQSVLYESRNKNSVA	WASTRES	DQYHRLPLS	1.71 / 1.69 / 1.96	1.79	2 of 9 (4.63)
RSSQSVLYESRNKNSVA	WASTRES	QVYHALPLS	1.25 / 1.11 / 1.17	1.18	3 of 9 (4.16)
KSSPSVLYESRRKNSVA	WASTRAS	QQYHRLPLS	2.10 / 2.02 / 1.99	2.04	0 of 9
KSSQSVLYESRNKNSVI	WADTRES	QKYHRLPLS	nd / nd / nd	nd	1 of 9 (3.90)
KSLQSVLYESRNKNSVA	WASTTES	QHYHRLPLS	nd / nd / nd	nd	0 of 9
KSSQSVKYEKRNKNSVA	WASTREF	QQYHRLPLS	2.39 / nd / 3.72	3.05	0 of 9
KSSQSVLYESANKNSVA	DASTRES	YQYHRLPLS	0.76 / 0.88 / 0.90	0.85	4 of 9 (4.22)
KSSQSVLYESRNKNSVA	WASIRRS	QQYHRSPLS	nd / nd / nd	nd	0 of 9
KSSQSVLYESRNKPMVA	WASTRES	QQYHRLPLS	nd / nd / 3.31	3.31	1 of 9 (4.37)
KSSQSTLYESRNKNSVA	WASTRES	QQYHKLPLK	0.81 / 0.98 / 1.03	0.94	2 of 9 (4.40)
KSSQSVLYLFRNKNSVA	WASTREQ	QQYHRLPLS	nd / nd / nd	nd	3 of 9 (2.88)
KSSQSVLYESRTKNSVA	WASTRES	QMYHRLPLP	nd / 4.32 / nd	4.32	3 of 9 (4.06)
KSSQSVLYESREKESVA	WASTRES	FQYHRLPLS	1.44 / 1.57 / 2.05	1.69	4 of 9 (4.37)
KSSQSVLYESRNKNSVQ	WASTRES	QCYHRLQLS	nd / nd / 3.60	3.60	1 of 9 (3.88)
KSSQSVLLESRNKNSVT	WASTRES	QQYHRLMLS	nd / 5.06 / 4.34	4.70	6 of 9 (4.34)
KSSHSVLYESRNKNSVA	WASTRES	HQYHRNPLS	3.86 / 3.06 / 3.40	3.44	3 of 9 (4.10)
KYSQSVLYESANKNSVA	DASTRES	QQYHRLPLS	-0.39 / 0.00 / -0.26	-0.22	7 of 9 (4.50)
KSSQSVLYESRNKNSVA	WADTRMS	QQQHRLPLS	nd / nd / 4.08	4.08	2 of 9 (4.63)
KSSQSVLYESRNKQSVA	WASTRES	QYYHRLPLF	3.64 / nd / nd	3.64	4 of 9 (3.70)
KSSQTVLYESRTKNSVA	WASTRES	QQYHRLPLS	1.62 / 1.78 / 1.61	1.67	2 of 9 (3.99)
KSSQSVLYENRNKCSVA	WASTRES	LQYHRLPLS	nd / nd / nd	nd	2 of 9 (3.36)
KSSQSVLKESRNKASVA	WASTRES	QQNHRLPLS	3.35 / 4.08 / nd	3.71	0 of 9
KFSQSVLYESRNTNSVA	WASTRES	CQYHRLPLS	3.32 / 2.28 / 2.68	2.76	1 of 9 (4.23)

Excerpt, the first 5 entries:

CDR-L1	CDR-L2	CDR-L3	log10 Kd, replicates	mean, log10 nM	empty controls
KSSQSVLYENRNKNSVA	WASTRES	QGYHRLDLS	nd / nd / nd	nd	0 of 9
KSSQDVLYESRNKNSVA	WASTRES	QQWHRLPLS	1.37 / 1.48 / 1.57	1.47	5 of 9 (4.73)
KSSQSVLYPSRAKNSVA	WASTRES	QQYHRLDLS	1.67 / 1.61 / 2.03	1.77	1 of 9 (3.13)
KSSQSVWYESRNKNPVA	WASYRES	QQYHRLPLS	nd / nd / 2.51	2.51	0 of 9
SSSQSVLYESRFKNSVA	WASTREN	QQYHRLPLS	2.15 / nd / nd	2.15	0 of 9

Empty control strains, which show no peptide, gave a signal in 18% of pairings with library AAYL50; the median was 4.19 and 95% of these signals were weaker than 2.99. No background was subtracted. Also given: how often the same scFv was detected with the empty control strains, with their mean in brackets.

From the AlphaSeq antibody data of Engelhart et al. 2022 (doi:10.1038/s41597-022-01779-4), copy in the FLAb collection.